# Test results reported in ChEMBL document CHEMBL3232785, “Basic quinolinonyl diketo acid derivatives as inhibitors of HIV integrase and their activity against RNase H function of reverse transcriptase” (J Med Chem, 2014).
# What was measured:
# [1] = biological target: T1, Human immunodeficiency virus type 1 integrase (Human immunodeficiency virus 1, UniProt Q7ZJM1); test: Inhibition of HIV1 integrase 3'-processing activity by gel-based assays
# [2] = biological target: T1, Human immunodeficiency virus type 1 integrase; test: Inhibition of HIV1 integrase strand transfer activity by gel-based assay
# [3] = biological target: Human immunodeficiency virus type 1 reverse transcriptase (Human immunodeficiency virus 1, UniProt Q72547); test: Inhibition of HIV1 RNase H function of recombinant reverse transcriptase using an 18-nt 3'-fluorescein-labeled RNA annealed to complementary 18-nt 5'-dabsyl-labeled DNA as substrate after 10 mins by fluorescence spectrometer analysis
SMILES,IC50 [1] [µM],IC50 [2] [µM],IC50 [3] [µM]
O=C(O)/C(O)=C/C(=O)c1cn(Cc2ccc(F)cc2)c2cc(N3CCNCC3)ccc2c1=O,65,2,28.7
CN(C)c1ccc2c(=O)c(C(=O)/C=C(\O)C(=O)O)cn(Cc3ccc(F)cc3)c2c1,5.1,0.15,6.6
CCOC(=O)/C(O)=C/C(=O)c1cn(Cc2ccc(F)cc2)c2cc(N3CCN(C)CC3)ccc2c1=O,56,0.6,18.5
CC(=O)N1CCN(c2ccc3c(=O)c(C(=O)/C=C(\O)C(=O)O)cn(Cc4ccc(F)cc4)c3c2)CC1,8.5,0.08,3.3
